SMILES strings stand for the structures.

For experiment [1], the target named is T1, Sirt3 (Homo sapiens, UniProt Q9NTG7).
T1 construct: The hSirt3^118-399 was purchased from Xtal Biostructures (Natick, MA); purchased Xtal Biostructures (Natick, MA)
T1 sequence (Q9NTG7 118-399): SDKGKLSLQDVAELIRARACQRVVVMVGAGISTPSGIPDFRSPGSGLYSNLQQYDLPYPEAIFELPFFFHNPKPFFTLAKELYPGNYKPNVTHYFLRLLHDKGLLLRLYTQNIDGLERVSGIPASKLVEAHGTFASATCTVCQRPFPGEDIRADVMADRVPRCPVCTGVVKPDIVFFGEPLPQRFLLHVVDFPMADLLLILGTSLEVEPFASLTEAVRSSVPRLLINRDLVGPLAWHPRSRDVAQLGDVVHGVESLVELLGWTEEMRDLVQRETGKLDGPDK
Kind of experiment: Fluorescence-based (FdL) assay of Sirt3 deacylation activity under steady state conditions. Format: biochemical. Here is the method: FIG. 58 illustrates a dose-response curve of the compound of FIG. 29 under steady state condition where [NAD^+]=1 mM, [FdL2 peptide]=50 μM, [E0]/[NAD^+]=0.0015 at 30 min time point (N=3).
Reference compounds of FIGS. 1 and 28-29 were screened using a fast fluorescence-base assay (FdL) under the steady state condition (low enzyme concentration, high reaction time) to validate binding and activity modulation, and show different degrees of inhibitory effect. […] FIG. 58 illustrates a dose-response curve of the compound of FIG. 29 under steady state condition where [NAD^+]=1 mM, [FdL2 peptide]=50 μM, [E0]/[NAD^+]=0.0015 at 30 min time point (N=3).
(§1) MnSOD (KGELLEAI-(KAc)-RDFGSFDKF) was synthesized by GenScript (Piscataway, NJ). FdL2 (QPKK^AC-AMC) peptide, also called p53-AMC peptide, was purchased from Enzo Life Sciences (Farmingdale, NY). Carba-NAD was synthesized by Dalton Pharma (Toronto, ON). The hSirt3^118-399 was purchased from Xtal Biostructures (Natick, MA). Virtual screening hits were supplied from ChemBridge Corp. (San Diego, CA).
(§2) Effect of Hit Compounds on hSirt3^118-399 Deacetylation Activity

For experiment [2], the target named is T1, Sirt3. Kind of experiment: HPLC assay of Sirt3 deacylation activity under non-steady state conditions. Type of experiment: biochemical. The note with it: compound 10 μM, 2 minute time point, read-out: % Control (10 μM), Sirt3 deacylation activity. Here is the method: As an established Sirt3 activator, HKL was studied to investigate how the time series of activity modulation depends on the concentration [E]0 of enzyme. The activation of Sirt3 was tested and confirmed by HPLC-assay under non-steady state condition (high enzyme concentration, short reaction time) in the presence of two out of reference compounds of FIGS. 1 and 29. This non-steady state was studied using 50 U or 100 U of enzyme and 50 μM of NAD^+, E0/NAD^+=0.3-0.6 and 2 minute time point to limit the substrate concentration such that steady state is achieved later. The NAD^+ concentration used in our non-steady state study is close to physiological concentration during aging since mitochondrial NAD^+ is ˜200 μM in young age and can drop by 50% or more in old age.
as §1, §2
HPLC Assay Using Native Peptide […]

On to `CCCCNC(=O)COc1ccc2c(c1)CCc1ccccc1C2NC(=O)CCCOc1cc([N+](=O)[O-])c(C(C)O)cc1OC` (stereo not drawn) [FIG. 29, N-[6-[2-(butylamino)-2-oxo-ethoxy]-2-tricyclo[9.4.0.03,8]pentadeca-1(11),3(8),4,6,12,14-hexaenyl]-4-[4-(1-hydroxyethyl)-2-methoxy-5-nitro-phenoxy]butanamide], for which, at Sirt3 [1] (compound 1 μM, read-out: % Control, Sirt3 deacylation activity), the remaining activity at 1 µM came to 94.1 ± 1.2%. Moreover, the remaining activity at 10 µM on Sirt3 [1] (compound 10 μM, read-out: % Control, Sirt3 deacylation activity) stood at 63.7 ± 0.6%; on Sirt3 [2] ([E]0/[NAD+]0 = 0.3, 50 μM NAD+), 107 ± 2%; on Sirt3 [2] ([E]0/[NAD+]0 = 0.6, 50 μM NAD+), 122 ± 1.6%. Besides, the “% Control, Sirt3 deacylation activity” value on Sirt3 [1] (compound 50 μM or maximum) was found to be 33.7 ± 2.4%. Besides, at Sirt3 [1] (compound 50 μM, read-out: Sirt3 deacylation activity inhibited), the inhibition at 50 µM was 66.3%.

Source of the values: patent US12215069B2, “Sirtuin modulating compounds and applications thereof” (Codagen Biosciences, Inc., priority 2022, dated 2025).
